Laboratory results reported in patent US20070134231A1, “Method for prolonging activity of autodegradable enzymes and compositions thereof” (priority 2005, published 2007).

Amino acid sequences for entries named in this document (tags omitted). Residues count along the entry.
UniProt P00747, 97-580 limits assumed: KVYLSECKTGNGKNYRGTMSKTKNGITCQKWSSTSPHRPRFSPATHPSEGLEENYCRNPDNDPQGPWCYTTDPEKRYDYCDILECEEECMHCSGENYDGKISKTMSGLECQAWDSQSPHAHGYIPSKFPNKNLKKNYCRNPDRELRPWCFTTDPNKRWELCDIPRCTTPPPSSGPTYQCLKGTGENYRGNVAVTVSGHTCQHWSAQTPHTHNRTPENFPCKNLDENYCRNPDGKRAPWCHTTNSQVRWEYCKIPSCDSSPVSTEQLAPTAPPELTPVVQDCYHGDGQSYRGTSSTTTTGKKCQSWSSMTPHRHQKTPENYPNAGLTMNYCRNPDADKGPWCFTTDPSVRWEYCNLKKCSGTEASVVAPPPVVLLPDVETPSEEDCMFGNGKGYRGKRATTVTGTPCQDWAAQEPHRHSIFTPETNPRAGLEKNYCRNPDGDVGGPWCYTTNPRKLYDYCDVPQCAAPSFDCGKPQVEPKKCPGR
UniProt P00747, 581-810 limits assumed: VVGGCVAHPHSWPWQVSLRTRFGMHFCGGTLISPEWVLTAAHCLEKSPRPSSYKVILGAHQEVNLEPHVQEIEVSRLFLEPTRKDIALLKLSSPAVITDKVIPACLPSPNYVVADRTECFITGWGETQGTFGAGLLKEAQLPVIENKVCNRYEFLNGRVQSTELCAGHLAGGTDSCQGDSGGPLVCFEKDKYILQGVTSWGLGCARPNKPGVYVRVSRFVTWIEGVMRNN

Biological target: T1, human plasmin (Homo sapiens, UniProt P00747)
T1 construct: which cleave a single-chain plasminogen molecule at the Arg^560 -Val^561 peptide bond, producing active plasmin; purchased Talecris, Inc. (Research Triangle Park, North Carolina)
Experiment: Plasmin precipitation study in buffer solutions (PBS, pH of about 7.4)
Type: physicochemical
Details: plasmin 1 mg/ml, observed within 2 hours
Procedure: This acidified, lyophilized plasmin was reconstituted with 0.9% (by weight) NaCl solution to a concentration of 10 mg/ml. […] Combinations of ε-aminocaproic acid and gelatin or glycerin were also tested. The concentration of plasmin in the additive-containing buffer was 1 mg/ml.

HSA: human serum albumin was tested, and the “Concentration Range Tested That Did Not Prevent Precipitation at pH of About 7.4” value was 5% (w/v).
